The inhibition is the change of the read-out against control, counted positive when it falls.

By UniProt entry, the sequences of proteins in these tests, tags left out.
UniProt Q99873, whole entry, looked up: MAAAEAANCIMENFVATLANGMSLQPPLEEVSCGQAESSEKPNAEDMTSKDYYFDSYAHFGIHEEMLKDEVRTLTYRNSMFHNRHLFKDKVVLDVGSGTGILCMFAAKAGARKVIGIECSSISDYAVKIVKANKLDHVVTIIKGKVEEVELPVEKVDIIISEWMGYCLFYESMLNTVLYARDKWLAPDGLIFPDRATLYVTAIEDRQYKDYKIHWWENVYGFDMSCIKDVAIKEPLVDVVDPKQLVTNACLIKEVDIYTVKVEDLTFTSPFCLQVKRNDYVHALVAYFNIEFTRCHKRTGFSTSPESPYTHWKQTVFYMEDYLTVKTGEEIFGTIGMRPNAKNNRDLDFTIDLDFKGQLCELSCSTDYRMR

Only a part is listed here, and it is no random draw. Activity calls are given as the source filed them.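 The calls were made as follows: active = inhibition above about 21% made by adding two undisclosed values (limit read from the data); inactive = the rest.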

The test has as its target Protein arginine N-methyltransferase 1 (Homo sapiens) (UniProt Q99873). Briefly: human PRMT1 activity-probe blockers – biochemical, fluorescence polarization, primary screen (AID 652257). The following applies: recombinant PRMT1, activity-based probe fluorescence polarization; at 2.79 µM; hits give high values. On the technique in general: Fluorescence polarisation rises when a labelled molecule tumbles more slowly, as on binding a larger partner.
For `O=C(COc1ccccc1)OC1CN2CCC1CC2` (stereo not drawn), the inhibition is inactive: -1.22%.

On to `O=C(OC1CN2CCC1CC2)c1cccc([N+](=O)[O-])c1` (stereo not drawn), for which the inhibition was inactive: 3.07%.

Turning to `CCOC(=O)c1ccc(NC(=O)C(C)(CCl)SC)cc1` (stereo not drawn), the inhibition is inactive: -1.7%.

`CCC(C)N(CC(C)C)C(=S)SC(NC(C)=O)C(Cl)(Cl)Cl` (stereo not drawn): the inhibition is inactive: -0.18%.

For the compound `Cc1c2c(nc3ccccc13)SC(C(Cl)Cl)C2` (stereo not drawn), the inhibition is inactive: -2.23%.

Consider `Cc1cc(=O)[nH]c(N[N+](=O)[O-])n1`, for which the inhibition is inactive: -1.46%.

Regarding `O=C(OC1CN2CCC1CC2)C12CC3CC(CC(C3)C1)C2` (stereo not drawn), the inhibition was inactive: -2.37%.

Regarding `O=P1(N(CCCl)CCCl)Nc2ccccc2N1`, the inhibition was inactive: 5.74%.

With `O=P1(N(CCCl)CCCl)OCCCN1CCCl` (stereo not drawn), the inhibition was inactive: -0.78%.

Take `COc1cc(I)ccc1[As](=O)(O)O`: the inhibition was inactive: -1.8%.

For `COc1ccc2nc(NP(=O)(c3ccccc3)c3ccccc3)sc2c1`, the inhibition was inactive: -0.15%.

As for `O=[N+]([O-])c1cc(Oc2ccc([N+](=O)[O-])cc2C(F)(F)F)cc([N+](=O)[O-])c1`, the inhibition is inactive: 0.66%.

For the compound `COc1ccc(N/C(=N/P(=O)(N2CCOCC2)N2CCOCC2)N2CCOCC2)cc1`, the inhibition is inactive: 16.4%.

With `COc1cc(C(=O)NCC2(N3CCOCC3)CCCCC2)ccc1OCC(C)C`, the inhibition is inactive: -0.66%.

`O=[N+]([O-])c1ccc(-c2cc([N+](=O)[O-])c(O)c([N+](=O)[O-])c2)cc1`: the inhibition is inactive: -2%.

`C[As](=O)(O)c1cccc(C(=O)O)c1`: the inhibition was inactive: -2.97%.

With `O=[As](O)(c1ccc(O)cc1)c1ccccc1O`, the inhibition is inactive: 1.42%.

Turning to `Cc1ccc(OP(=O)(Nc2ccc([N+](=O)[O-])cn2)Oc2ccc(C)cc2)cc1`, the inhibition was inactive: -1.62%.

For the compound `[N-]=[N+]=NC1CCCCC1NC(=O)c1cc([N+](=O)[O-])cc([N+](=O)[O-])c1` (stereo not drawn), the inhibition was inactive: -1%.

Take `Cc1ccc2nc3c(c(C)c2c1)CC(C(Cl)Cl)S3` (stereo not drawn): the inhibition is inactive: 5.14%.

For the compound `ClCCSc1nnc(-c2cccnc2)o1`, the inhibition is inactive: 1.34%.

With `CC(C)c1ccc(OP(=O)(Nc2ccccn2)Oc2ccccc2F)cc1` (stereo not drawn), the inhibition was inactive: 1.66%.

On to `COC(=O)C1(C)COP(=O)(N2CCCCCC2)OC1` (stereo not drawn), for which the inhibition is inactive: 2.42%.

In the case of `CCN(CC)C(=S)SC(NC=O)C(Cl)(Cl)Cl` (stereo not drawn), the inhibition was inactive: 2.71%.

Regarding `O=C(OC1CN2CCC1CC2)c1cccc2[nH]cnc12` (stereo not drawn), the inhibition was inactive: 2%.

For the compound `CC(C)NC(=O)NP(=O)(Oc1ccccc1)Oc1ccccc1`, the inhibition is inactive: 0.64%.

On to `O=P(Nc1nccs1)(Oc1ccccc1)Oc1ccccc1`, for which the inhibition is inactive: -2.84%.

As to `CCOP1(=S)c2c(C)nn(CCC#N)c2N=C(c2ccccc2F)N1C` (stereo not drawn), the inhibition was inactive: 2.16%.
